Assay results as given in PubChem BioAssay AID493014 (National Center for Advancing Translational Sciences (NCATS), 2011).
The list shows a part of the results. Records with an inconclusive call do not appear. The source made the active and inactive calls. The call rests on the fitted dose curve; in most records, active means well fitted inhibition curve with a large enough effect in the signal ratio, with a control signal flat (not every such curve was filed as active); inconclusive means small, poorly fitted or top-dose-only effect, or effect the other way, or a change in a side signal; inactive means flat fitted curve, though single readings scatter; the % refers to the signal ratio.

assay: qHTS Assay to Find Inhibitors of Chronic Active B-Cell Receptor Signaling; conditions: ABC-DLBCL IkBa-CBG/CBR reporter, luminescence ratio (green luciferase fused to IkBa over red control in TMD8 lymphoma cells), 4 h; at 46.1 µM (top of the series);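 further: plate controls were basal doxycycline-induced cells for no effect and cells given 10 µM MG132 for full effect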
From the text: NIH Molecular Libraries Probe Production Network [MLPCN] NIH Chemical Genomics Center [NCGC] MLPCN Grant: 1 R03 DA031086-01A1 PI Name: Dr. R. Eric Davis NCGC Assay Overview: Diffuse large B-cell lymphoma (DLBCL) is the most common category of non-Hodgkin lymphoma, with ~20,000 new cases per year in the United States. DLBCL should be regarded as a collection of different neoplasms. Microarray gene expression analysis has defined two principal types of DLBCL, named for their similarity to normal B cell stages or activation states: a germinal center B-cell (GCB) type, and an activated B-cell (ABC) type. In ABC-DLBCL, a constitutive high-level activity of the NF-kappaB family of transcription factors has been observed (1) and NF-kappaB target genes are more highly expressed in ABC primary tumors than in GCB tumors. Functional studies have shown a constitutive high-level activity of the IkappaB (inhibitor of kappa-B) kinase (IKK) complex. […] Further analysis of DLBCL primary tumors for NF-kappaB target gene expression imply that although CARD11 is required for constitutive IKK activity in all ABC-DLBCL lines, mutations in CARD11 may be the root cause of IKK activation only in lines or tumors with such mutations. In other words, CARD11 mutations may explain NF-kappaB activation in only 10% of ABC-DLBCL cases. […] This process has been termed 'chronic active BCR signaling' (CABS). The goal of this screen is to find small-molecule inhibitors of the CABS pathway found in ABC-DLBCL lines using a cell-based assay that measures IkappaBalpa stability, which has already been extensively validated in the OCI-Ly3 line (PubChem AID:445; REF: 4). […] The assay uses green (CBG68) and red (CBR) emitting beetle luciferases [Chroma-GloTM developed by Promega Corp.] where the green luciferase is fused to IkappaBalpha and the red luciferase is present in its native state. Both luciferase genes are stably present in the TMD8 human ABC DLBCL cell line, but their expression is under the control of tetracycline-inducible promoters. Following the addition of doxycycline to induce expression of the luciferases, the green luminescence in control cultures rises only slowly because the CBG fusion partner IkappaBalpha is targeted by IKK activity for rapid degradation. In contrast, green luminescence rises rapidly in the presence of proteasome inhibitors or IKK inhibitors. The rise in red luminescence of CBR is not affected by proteasome or IKK inhibitors, and serves as normalization for cell number and nonspecific effects. Compounds were screened as a concentration-titration series that ranged from 46 uM to 3 nM.
NCGC Assay Protocol Summary: Cells were seeded in 1536-well plates at 5000 cells/4uL in IMDM medium containing 0.5% FBS, w/o phenol red, 1% penicillin/streptomycin. Then, 23 nL of compounds or DMSO were delivered to each well using a pin tool. One uL 20ng/ml doxycycline was then dispensed into white solid 1536-well plates and the plates were incubated at 37C/5% C02 in a cell incubator for 4 hrs. Then 4 uL luminescent substrate mix (in-house prepared: 150 mM Tris-Cl, pH 7.6, 3 mM MgCl2, 1% Triton X-100, 5 mM DTT, 0.2 mM CoA, 0.15 mM ATP, 5 mM D-luciferin, final concentrations) was added to each well. The plate was incubated at r.t. for 10-15 min. The plates were measured on a ViewLux plate reader for green luminescence (540/20 nm filter) and red luminescence (618/8 nm filter). The green and red luminescent signals were corrected for red and green luminescence filter overlap using previously determined filter calibration constants (determined using the procedure outlined in the Promega Technical Manual; REF 4). The %Activity was determined from the ratio of corrected green/red luminescent values. MG132 were used as control. […] Red luminescent %Activity was normalized to the difference between red luminesence in basal cells (0%Activity) and zero luminescence (-100% Activity). […]

| Compound | activity change, negative = inhibition |
| --- | --- |
| O=C(NCC1(N2CCCCC2)CCCCC1)c1cncc(Br)c1 | inactive: 5.53% |
| O=C(OC1CN2CCC1CC2)c1ccc([N+](=O)[O-])cc1 (configuration not stated) | inactive: -2.27% |
| CCCOc1ccc(C(=O)NCC2(N(C)C)CCCCC2)cc1OC | inactive: 3.26% |
| O=[N+]([O-])c1cc([N+](=O)[O-])c(OC2CCCCC2O)c([N+](=O)[O-])c1 (configuration not stated) | inactive: 4.48% |
| CN(C)c1cccc(C(=O)NCC2(N3CCCCC3)CCCCC2)c1 | inactive: 3.58% |
| CC(C)c1ccc(NC2CCN(C(=O)OC(C)(C)C)CC2)cc1 | inactive: -18.7% |
| COc1cc(OC)c(C(=O)NCC2(N(C)C)CCCCC2)cc1OC | inactive: 5.53% |
| O=C(NCC1(N2CCOCC2)CCCCC1)c1cc(F)c(F)cc1Cl | inactive: -0.252% |
| O=C(NCC1(N2CCCCC2)CCCCC1)c1cccc(C(F)(F)F)c1 | inactive: 2.57% |
| CN1CCN(CCOC(=O)C(O)(c2ccccc2)c2ccccc2)CC1 | inactive: 4.96% |
| CC(C)c1ccc(C(=O)NCC2(N3CCOCC3)CCCCC2)cc1 | inactive: 9.33% |
| COc1cc(C(=O)NCC2(N3CCCCC3)CCCCC2)ccc1OC(F)F | inactive: -26.4% |
| O=C(NCC1(N2CCOCC2)CCCCC1)c1cc(=O)[nH]c2ccccc12 | inactive: -1.36% |
| O=C(NCC1(N2CCCCC2)CCCCC1)c1ccc(OC(F)F)cc1 | inactive: 0.831% |
| O=C(NCC1(N2CCCCC2)CCCCC1)c1cccc([N+](=O)[O-])c1 | inactive: -13.8% |
| CSc1ccc(C(=O)NCC2(N3CCOCC3)CCCCC2)cc1 | inactive: 8.32% |
| CCN1CCC(Nc2ccc(Cl)cc2)CC1 | inactive: -0.598% |
| N#CC1(Nc2ccccc2)CCN(CCc2ccccc2)CC1 | inactive: 10.8% |
| CCOC(=O)N1CCC(Nc2cccc(C)c2)CC1 | inactive: 3.09% |
| Cc1ccc(OCC(C)C)c(CN(CCCl)CCCl)c1 | inactive: 2.76% |
| CCOc1ccc(C)cc1CN(CCCl)CCCl | inactive: -0.0325% |
| CCCCOc1ccc(C(=O)NCC2(N3CCOCC3)CCCCC2)cc1 | inactive: -0.659% |
| O=C(NCC1(N2CCCCC2)CCCCC1)c1ccc(F)cc1 | inactive: 6.74% |

| Compound | activity change, negative = inhibition |
| --- | --- |
| COc1ccc(NC2CCN(CCc3ccccc3)CC2)c(OC)c1 | inactive: -1.56% |
| CCOC(=O)N1CCC(Nc2ccc(F)cc2)CC1 | inactive: 6.29% |
| O=C(NCC1(N2CCOCC2)CCCCC1)c1cc2ccccc2o1 | inactive: 0.149% |
| O=C(NCC1(N2CCCCC2)CCCCC1)c1ccc(Cl)nc1 | inactive: 0.0508% |
| Cc1cc(C)cc(N(C(=O)c2ccccc2)C2CCN(C(=O)OC(C)(C)C)CC2)c1 | inactive: -0.621% |
| CCOC(=O)N1CCC(Nc2ccc(OC)cc2)CC1 | inactive: 5.13% |
| O=C(NCC1(N2CCCCC2)CCCCC1)c1ccc(Cl)s1 | inactive: 5.32% |
| N#CC1(Nc2ccccc2)CCN(Cc2ccccc2)CC1 | inactive: 2.2% |
| O=C(OC1CN2CCC1CC2)C1c2ccccc2Oc2ccccc21 (configuration not stated) | inactive: 2.02% |
| COc1ccc(Cl)cc1C(=O)NCC1(N2CCOCC2)CCCCC1 | inactive: 6.18% |
| O=C(NCC1(N2CCCCC2)CCCCC1)c1ccc(=O)[nH]c1 | inactive: -0.109% |
| O=C(NCC1(N2CCCCC2)CCCCC1)c1cccs1 | inactive: 0.0717% |
| COc1ccc(C(=O)NCC2(N3CCCCC3)CCCCC2)cc1 | inactive: 6.55% |
| CC(C)(C)OC(=O)N1CCC(N(C(=O)c2ccccc2)c2ccc(F)cc2)CC1 | inactive: -2.83% |
| COc1ccc(C(=O)NCC2(N3CCCCC3)CCCCC2)c(OC)c1OC | inactive: -0.443% |
| CSc1ccccc1C(=O)NCC1(N2CCCCC2)CCCCC1 | inactive: 1.47% |
| CCC(CO)(C(=O)OC1CN2CCC1CC2)c1ccccc1 (configuration not stated) | inactive: 0.146% |
| COc1cccc(C(=O)N(c2cc(C)cc(C)c2)C2CCN(C(=O)OC(C)(C)C)CC2)c1 | inactive: 4.77% |
| CCCOc1ccc(C)cc1CN(CCCl)CCCl | inactive: 0.282% |
| CN1CCC(Nc2ccc(Cl)cc2)CC1 | inactive: -1.38% |
| CCOc1ncccc1C(=O)NCC1(N2CCOCC2)CCCCC1 | inactive: 4.55% |
| CN1CCC(Nc2ccc(F)c(Cl)c2)CC1 | inactive: -0.236% |
| CCCOc1ccc(C(=O)NCC2(N(C)C)CCCCC2)cc1 | inactive: 1.85% |

| Compound | activity change, negative = inhibition |
| --- | --- |
| CC(C)(C)OC(=O)N1CCC(Nc2ccccc2)CC1 | inactive: 4.74% |
| O=C(O)C1(Nc2ccccc2)CCN(Cc2ccccc2)CC1 | inactive: 1.33% |
| CCN1CCC(Nc2cccc(F)c2)CC1 | inactive: 0.432% |
| O=C(NCC1(N2CCCCC2)CCCCC1)c1ccco1 | inactive: 0.529% |
| CN(C)c1ccc(C(=O)NCC2(N3CCCCC3)CCCCC2)cc1 | inactive: -0.742% |
| COc1cc(OC)cc(C(=O)NCC2(N3CCCCC3)CCCCC2)c1 | inactive: 3.78% |
| Cc1ccc(C(=O)NCC2(N3CCCCC3)CCCCC2)o1 | inactive: -0.793% |
| Fc1ccccc1NC1CCN(Cc2ccccc2)CC1 | inactive: -1.32% |
| c1ccc(CN2CCC(Nc3ccccc3)CC2)cc1 | inactive: 4.16% |
| CCCN1CCC(Nc2cc(OC)cc(OC)c2)CC1 | inactive: -6.99% |
| CN(C)C1(CNC(=O)c2cccc(C#N)c2)CCCCC1 | inactive: 5.22% |
| CC(C)(C)OC(=O)N1CCC(N(C(=O)c2ccccc2)c2ccc(Cl)cc2)CC1 | inactive: 0.0255% |
| N#Cc1ccc(C(=O)NCC2(N3CCCCC3)CCCCC2)cc1 | inactive: 1.26% |
| CCOC(=O)C(CC)C1=NC(C)(C)Cc2ccccc21.O=[N+]([O-])c1cc([N+](=O)[O-])c(O)c([N+](=O)[O-])c1 (configuration not stated) | inactive: -0.0921% |
| N/C(=N\O)c1c(N)no[n+]1[O-] | inactive: -0.749% |
| CCOC(=O)N1CCC(Nc2ccc(C)cc2)CC1 | inactive: -1.09% |
| CCc1cc(C(=O)NCC2(N3CCCCC3)CCCCC2)sc1C | inactive: 3.56% |
| O=C(OC1CN2CCC1CC2)C1c2ccccc2C=Cc2ccccc21 (configuration not stated) | inactive: -5.96% |
| O=C(O)c1cccc(Nc2c([N+](=O)[O-])cc([N+](=O)[O-])cc2[N+](=O)[O-])c1 | inactive: 13.8% |
| O=C(NCC1(N2CCOCC2)CCCCC1)c1cc(Br)ccc1Cl | inactive: -0.242% |
| COc1cc(C(=O)NCC2(N3CCOCC3)CCCCC2)cc(OC)c1C | inactive: 1.84% |
